Measurements reported in patent US20260384421A1, “NOVEL COMPOUNDS THAT CAN BE USED AS THERAPEUTIC AGENTS” (published 2026).

Key:
[1] = system: AMPK (Thr172 phosphorylation) in A-549 cells; assay: AMPK activation assay on A-549 cells (Thr172 phosphorylation, western blot); settings: 10 nM, 20 hours, Thr172 phosphorylation relative to DMSO control
Method: (§1) AMPK activation can be assessed by the levels of AMPK phosphorylation at Thr172. The APMK activating activities of compounds falling under general formula (I) were investigated by western blotting on different cancer cell lines. Access and cultivation of the respective cell lines are as described above. To this end, A-549, HEP-G2, and HCT-116 cells were seeded into 6-well culture plates (Cyto-One®, #CC7682-7506) in a total volume of 2 mL at a density to achieve 80% confluency by 48 hours and incubated over night at 37 °C and 5% CO2. Cells were treated at a confluency of around 50% with compounds at indicated final concentration by adding 2 μL per well of a 1000× compound DMSO stock-solution. Cells were incubated for 20 hours at 37 °C and 5% CO2. Then, cells were lysed in RIPA buffer (Pierce™ RIPA Buffer, FisherScientific, #89900) supplemented with 1× cOmplete™ Mini Protease Inhibitor Cocktail (Roche, #11836153001) and 1 mM Sodium Orthovanadate (Na3VO3, FisherScientific, #J60191) and lysates were subjected to standard western blotting procedure. Protein concentration of the samples was determined by BCA assay and samples were normalized to achieve equal protein concentration. 4× Laemmli Sample Buffer (Bio-Rad, #1610747) was supplemented with 200 μM DTT (Sigma Aldrich-Merck, #D9779) and added to the samples to achieve a final concentration of 1× Laemmli/50 μM DTT by diluting lysate samples with supplemented Laemmli buffer 1:4. Samples were then incubated at 95 °C for 5 min in a Thermomixer (Eppendorf). SDS-PAGE was performed in 1× Tris/Glycine/SDS buffer (TGS, Bio-Rad, #1610772) using 4-15% gradient polyacrylamide gels (4-15% Mini-PROTEAN® TGX Stain-Free™ Gel, Bio-Rad, #456-8084). Proteins were transferred onto 0.2 μm PVDF membranes using the semi-dry Trans-Blot® Turbo™ transfer system (Trans-Blot® Turbo™, Bio-Rad, #170-4150) with prepacked Trans-Blot® Turbo™ transfer packs (Bio-Rad, #170-4156). Immunodetection of AMPK, pAMPK (Thr172), and β-Actin was performed using the following primary antibodies: AMPKα (F6) Mouse mAb (Cell Signaling Technologies, #2793) for AMPK, Phospho-AMPKα (Thr172) (40H9) Rabbit mAb (Cell Signaling Technologies, #2535) for pAMPK (Thr172), and Purified anti-β-actin Antibody (Rat monoclonal, W16197A) (Cell Signaling Technologies, #664802) for β-Actin. HRP-linked secondary antibodies in 5% nonfat dried milk (AppliChem, #A0830) in 1×TBS containing 0.1% Tween-20 were used for the corresponding species mouse, rabbit and rat (Cell Signaling Technologies, #7076, #7074, #7077), respectively. Signals were developed with chemiluminescence substrate (SuperSignal™ West Pico PLUS, Fisher Scientific, #34577) and detected with the ChemiDoc™ MP imaging system (ChemiDoc™ MP, Bio-Rad, #12003154). Chemiluminescence signals of phosphorylation, total protein and loading control were quantified by densitometry using the image analysis software Image Lab™ (version 6.0.1, Bio-Rad). The corresponding lysates from DMSO treated cells were included on each membrane as the base line control for blot-internal signal normalization. The standard deviation of signal intensities of the loading control-Actin within each blot was 16% or lower confirming equal loading of protein amounts.
(§2) For each condition, the ratio of phosphorylation to corresponding total protein was calculated from the signal intensities. The ratios were then normalized to the corresponding ratio of the DMSO control to yield the fold-change values of phosphorylation.
(§3) In the following embodiments, a compound is considered as an AMPK activator if the fold-change value of phosphorylation is 1.5 or higher, preferably 2.0 or higher, and more preferably 2.5 or higher as determined with the method described above.

[2] = system: AMPK (Thr172 phosphorylation) in HEP-G2 cells; assay: AMPK activation assay on HEP-G2 cells (Thr172 phosphorylation, western blot); settings: 10 nM, 20 hours, Thr172 phosphorylation relative to DMSO control
Method: as §1, §2, §3

SMILES | Fold-change AMPK activation [1] | Fold-change AMPK activation [2]
COc1cc(C2CCC(OC)CC2)ccc1Oc1ccc(C(=O)N2CCN(Cc3ccc(Cl)cc3)CC2)cc1 (centres unmarked) | ≥2.5 | –
COc1ccc(CN2CCN(C(=O)c3ccc(Oc4ccc(C5CCC(OC)CC5)cc4CO)cc3)CC2)cc1 (centres unmarked) | – | ≥2.0
COC1CCC(c2ccc(Oc3ccc(C(=O)N4CCN(Cc5cnc6ccccc6c5)CC4)nc3)c(CO)c2)CC1 (centres unmarked) | ≥2.5 | –
COc1ccc(CN2CCN(C(=O)c3ccc(Oc4ccc(C5CCC(OC)CC5)cc4O)cn3)CC2)cc1 (centres unmarked) | ≥2.5 | –
COC1CCC(c2ccc(Oc3ccc(C(=O)N4CCN(Cc5ccc(C(F)(F)F)cc5)CC4)nc3)c(CO)c2)CC1 (centres unmarked) | ≥2.5 | –
O=C(c1ccc(Oc2ccc(C3CCCCC3)cc2CO)cc1)N1CCN(Cc2ccc(Cl)cc2)CC1 | – | ≥1.5
O=C(c1ccc(Oc2ccc(C3CCCCC3)cc2CO)cn1)N1CCN(Cc2ccc(OC(F)(F)F)cc2)CC1 | – | ≥2.5
COC1CCC(c2ccc(Oc3ccc(C(=O)N4CCN(Cc5ccccc5)CC4)nc3)c(CO)c2)CC1 (centres unmarked) | – | ≥2.5
COc1ccc(CN2CCN(C(=O)c3ccc(Oc4ccc(C5CCC(OC)CC5)cc4)cc3)CC2)cc1 (centres unmarked) | ≥2.5 | –
O=Cc1cc(C2CCC3(CC2)SCCCS3)ccc1Oc1ccc(C(=O)N2CCN(Cc3ccc(Cl)cc3)CC2)nc1 | ≥2.5 | –
O=C(c1ccc(Oc2ccc(C3CCCCC3)cc2CO)cc1)N1CCN(Cc2ccc(OC(F)(F)F)cc2)CC1 | ≥2.5 | –
COc1ccc(CN2CCN(C(=O)c3ccc(Oc4ccc(C5CCCCC5)cc4CO)cc3)CC2)cc1 | – | ≥1.5
COc1ccc(CN2CCN(C(=O)c3ccc(Oc4ccc(C5CCC(OC)CC5)cc4CO)cn3)CC2)cc1 (centres unmarked) | – | ≥1.5
COC1CCC(c2ccc(Oc3ccc(C(=O)N4CCN(Cc5ccc(Cl)cn5)CC4)cc3)c(CO)c2)CC1 (centres unmarked) | ≥2.5 | –
O=C(c1ccc(Oc2ccc(C3CCC4(CC3)SCCCS4)cc2CO)cn1)N1CCN(Cc2ccc(Cl)cc2)CC1 | ≥2.5 | –
COC1CCC(c2ccc(Oc3ccc(C(=O)N4CCN(Cc5ccc(Cl)cc5)CC4)cc3)c(CO)c2)CC1 (centres unmarked) | – | ≥2.5
O=C(c1ccc(Oc2ccc(C3CCC4(CC3)OCCO4)cc2CO)cc1)N1CCN(Cc2ccc3ccccc3c2)CC1 | – | ≥2.0
